Data taken from patent US5633231A, “Valine-containing pseudopeptides with antiviral activity” (Bayer Aktiengesellschaft, priority 1993, dated 1997).

Test system: human embryonic lung fibroblast (HELF) cell cultures
Experiment: Anti-cellular (toxic and cytostatic) effect on HELF cells in the same screening test
Type: cell-based
Settings: 6 days at 37° C.

Structure (SMILES)	CIC50 (μM) (HELF) = highest concentration at which no obvious anticellular effect is evident
Cc1ccc(S(=O)(=O)N=C(N)NCCC[C@H](NC(=O)OCc2c(Cl)cccc2Cl)C(=O)N[C@H](C(=O)NC(C=O)Cc2ccccc2)C(C)C)cc1 (some centres unmarked)	0.52 µM
Cc1ccc(S(=O)(=O)N=C(N)NCCC[C@H](NC(=O)COc2ccc(F)cc2F)C(=O)N[C@H](C(=O)NC(C=O)Cc2ccccc2)C(C)C)cc1 (some centres unmarked)	4.38 µM
